Results: US20230322930A1, “USE OF AN ANTI-PD-1 ANTIBODY AND A CYTOTOXIC ANTICANCER DRUG IN TREATMENT OF NON-SMALL CELL LUNG CANCER” (SHANGHAI JUNSHI BIOSCIENCES CO., LTD., priority 2020, published 2023)

Test system: advanced or recurrent NSCLC with EGFR-sensitive mutations after failure of EGFR-TKI treatment
Assay: Phase II clinical trial, antitumor activity study (RECIST v1.1 / irRECIST)
Settings: with pemetrexed + carboplatin
[1] = RECIST v1.1, among all 40 patients
[2] = irRECIST, number of patients of 40

In the case of “toripalimab: anti-PD-1 humanized IgG4 mAb with light and heavy chains of SEQ ID NOs: 9 and 10; described in WO 2014206107”, the “patients with partial remissions” value [1] is reported as 20 patients, the “patients with stable disease” value [1] is reported as 15 patients and the “overall diagnosed ORR” value (RECIST v1.1, n = 40, 95% CI: 33.8-66.2) is reported as 50%. The “treatments discontinued due to disease progression” value (all 40 patients, as of Jul. 10, 2020) was 55.0%, the “PRs using irRECIST criteria” value [2] was 21 and the “SDs using irRECIST criteria” value [2] was 14.
